The list shows a part of the results, in another mix than the full data. Some tests of the compounds listed are not included; inactive here does not mean inactive elsewhere. Active and inactive are the calls of the source.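 How the source made its calls: active means compounds whose normalised, plate-corrected inhibition of enzyme fluorescence in the single-dose primary screen is 50% or more; inactive means the rest.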

The chains behind the UniProt entries cited, without tags or fusion partners.
UniProt P49327, whole entry: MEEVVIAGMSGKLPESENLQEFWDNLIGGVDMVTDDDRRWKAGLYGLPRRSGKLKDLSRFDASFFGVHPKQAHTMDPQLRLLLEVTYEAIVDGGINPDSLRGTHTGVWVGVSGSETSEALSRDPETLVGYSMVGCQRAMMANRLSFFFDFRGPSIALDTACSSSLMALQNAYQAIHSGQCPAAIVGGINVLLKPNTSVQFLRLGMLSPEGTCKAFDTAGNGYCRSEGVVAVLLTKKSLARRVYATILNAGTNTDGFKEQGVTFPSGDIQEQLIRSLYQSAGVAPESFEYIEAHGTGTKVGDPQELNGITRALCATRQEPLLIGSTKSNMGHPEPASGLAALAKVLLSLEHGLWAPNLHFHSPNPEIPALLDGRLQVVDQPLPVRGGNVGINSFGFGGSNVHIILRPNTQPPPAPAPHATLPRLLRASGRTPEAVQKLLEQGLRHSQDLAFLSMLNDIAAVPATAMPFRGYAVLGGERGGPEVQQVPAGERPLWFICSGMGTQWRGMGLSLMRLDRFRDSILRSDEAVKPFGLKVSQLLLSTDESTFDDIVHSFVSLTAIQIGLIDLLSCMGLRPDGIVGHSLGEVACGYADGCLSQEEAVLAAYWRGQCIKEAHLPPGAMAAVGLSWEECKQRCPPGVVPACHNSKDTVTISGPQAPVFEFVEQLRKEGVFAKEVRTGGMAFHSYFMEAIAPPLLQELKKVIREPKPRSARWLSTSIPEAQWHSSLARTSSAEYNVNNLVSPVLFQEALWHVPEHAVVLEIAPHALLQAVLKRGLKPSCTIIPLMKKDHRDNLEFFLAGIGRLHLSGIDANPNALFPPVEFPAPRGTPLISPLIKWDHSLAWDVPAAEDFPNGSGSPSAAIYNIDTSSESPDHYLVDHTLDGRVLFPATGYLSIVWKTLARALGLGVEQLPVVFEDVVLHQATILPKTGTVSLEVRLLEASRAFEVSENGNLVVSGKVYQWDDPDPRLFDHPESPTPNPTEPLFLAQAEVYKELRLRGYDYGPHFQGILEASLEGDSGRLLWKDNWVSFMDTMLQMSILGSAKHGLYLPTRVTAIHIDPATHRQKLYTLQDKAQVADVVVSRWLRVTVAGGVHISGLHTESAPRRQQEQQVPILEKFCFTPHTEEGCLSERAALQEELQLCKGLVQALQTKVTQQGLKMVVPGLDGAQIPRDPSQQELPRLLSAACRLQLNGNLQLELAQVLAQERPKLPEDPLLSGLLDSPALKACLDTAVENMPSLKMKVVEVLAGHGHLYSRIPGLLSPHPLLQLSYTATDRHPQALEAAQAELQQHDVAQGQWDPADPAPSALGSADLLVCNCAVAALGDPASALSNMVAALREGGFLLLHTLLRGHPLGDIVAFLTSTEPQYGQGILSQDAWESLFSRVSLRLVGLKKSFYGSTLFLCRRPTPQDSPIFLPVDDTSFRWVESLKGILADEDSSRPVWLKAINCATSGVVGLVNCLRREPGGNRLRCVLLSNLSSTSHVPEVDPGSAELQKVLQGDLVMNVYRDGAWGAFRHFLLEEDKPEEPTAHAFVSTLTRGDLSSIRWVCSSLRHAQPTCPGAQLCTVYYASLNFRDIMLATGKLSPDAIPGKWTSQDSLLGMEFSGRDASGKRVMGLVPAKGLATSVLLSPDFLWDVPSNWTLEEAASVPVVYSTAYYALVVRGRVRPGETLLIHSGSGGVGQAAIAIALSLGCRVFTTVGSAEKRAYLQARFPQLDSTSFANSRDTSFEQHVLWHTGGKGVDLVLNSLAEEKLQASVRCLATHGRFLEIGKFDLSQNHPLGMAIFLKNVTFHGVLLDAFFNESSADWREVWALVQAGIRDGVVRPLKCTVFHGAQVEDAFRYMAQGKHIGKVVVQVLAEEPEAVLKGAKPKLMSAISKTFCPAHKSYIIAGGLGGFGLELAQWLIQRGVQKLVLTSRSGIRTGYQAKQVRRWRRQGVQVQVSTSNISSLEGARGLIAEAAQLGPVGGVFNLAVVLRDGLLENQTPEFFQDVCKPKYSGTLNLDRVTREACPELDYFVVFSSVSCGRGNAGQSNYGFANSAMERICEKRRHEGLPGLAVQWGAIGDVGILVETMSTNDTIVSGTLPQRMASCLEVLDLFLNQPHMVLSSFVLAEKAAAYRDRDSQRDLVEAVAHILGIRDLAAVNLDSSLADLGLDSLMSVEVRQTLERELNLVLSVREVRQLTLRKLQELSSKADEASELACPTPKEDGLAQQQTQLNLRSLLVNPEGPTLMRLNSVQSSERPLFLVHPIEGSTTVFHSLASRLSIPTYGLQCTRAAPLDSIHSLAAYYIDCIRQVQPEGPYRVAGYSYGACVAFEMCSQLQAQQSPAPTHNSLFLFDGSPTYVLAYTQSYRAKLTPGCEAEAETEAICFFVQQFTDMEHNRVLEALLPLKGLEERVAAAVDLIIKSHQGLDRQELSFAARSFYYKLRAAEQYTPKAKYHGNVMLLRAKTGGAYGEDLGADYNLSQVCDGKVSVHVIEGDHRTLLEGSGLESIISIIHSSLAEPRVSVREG

The target of this assay is Fatty acid synthase (Homo sapiens) (UniProt P49327). Description: FAS thioesterase domain inhibitors, primary screen, biochemical, fluorescence intensity, uHTS (AID 602261).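 Further: 0% = DMSO with enzyme and 100% = substrate without enzyme.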 The settings on record: recombinant FAS-TE, OMFH fluorogenic substrate, fluorescence endpoint; at 15 µM; active compounds read high.
In the case of `O=C(OC1CN2CCC1CC2)C(CO)(c1ccccc1)c1ccccc1` (stereo unspecified), the inhibition is inactive: -4.3%.
The figure for `COc1ccc(Br)c(C(=O)NCC2(N3CCCCC3)CCCCC2)c1` is inactive: -2%; for `C=C(C)C#CC(O)(C(=O)OC1CCN(C)CC1)c1ccccc1` (stereo unspecified) it is inactive: -5.5%.
Next, `CN(C)c1cccc(C(=O)NCC2(N(C)C)CCCCC2)c1`: inactive: -1.7%.
The figure for `CC(C)Oc1ccc(C(=O)NCC2(N(C)C)CCCCC2)cc1` is inactive: -4.5%; for `O=C(OCCN1CCCC1)C(O)(c1ccccc1)c1ccccc1` it is inactive: -7.6%.
`CN(C)C1(CNC(=O)c2ccc(Br)cc2)CCCCC1`: the inhibition was inactive: -3.8%.
The figure for `COc1cc(C(=O)NCC2(N(C)C)CCCCC2)c([N+](=O)[O-])cc1OC` is inactive: -6.8%; for `COc1cccc(C(=O)NCC2(N3CCCCC3)CCCCC2)c1` it is inactive: -3.9%.
As to `COc1ccc(Cl)cc1C(=O)NCC1(N(C)C)CCCCC1`, the inhibition was inactive: -10.7%.
The figure for `O=C(NCC1(N2CCCCC2)CCCCC1)c1cccc(Cl)c1` is inactive: -4.6%; for `Cc1ccccc1C(=O)NCC1(N2CCCCC2)CCCCC1` it is inactive: -3.8%.
For `CN(C)C1CCCC1OC(=O)C(O)(c1ccccc1)c1ccccc1` (stereo unspecified), the inhibition was inactive: -6.7%.
The figure for `CN(C)c1ccc(C(=O)NCC2(N(C)C)CCCCC2)cc1` is inactive: -0.1%; for `C=CCN1CCN(CCOC(=O)C(O)(c2ccccc2)c2ccccc2)CC1` it is inactive: -4.5%; for `O=C(NCC1(N2CCCCC2)CCCCC1)c1cc(F)c(F)cc1Cl` it is inactive: -3.9%.
Next, `Cc1cc(C(=O)NCC2(N3CCCCC3)CCCCC2)ccc1[N+](=O)[O-]`: inactive: -1.1%; `CCN1CCCC(OC(=O)C2(O)c3ccccc3C=Cc3ccccc32)C1` (stereo unspecified): inactive: -4.6%.
As for `O=C(NCC1(N2CCCCC2)CCCCC1)c1cccc(Br)c1`, the inhibition was inactive: -2.4%.
Next, `COc1ccc(C(=O)NCC2(N(C)C)CCCCC2)cc1`: inactive: -4%.
The figure for `O=C(NCC1(N2CCCCC2)CCCCC1)c1cc([N+](=O)[O-])ccc1Cl` is inactive: -3.5%.
For the compound `CN1[C@@H]2CC[C@H]1CC(OC(=O)C(O)(c1ccccc1)c1ccccc1)C2` (stereo partly specified), the inhibition is inactive: -5.5%.
Turning to `CC(C)N1C(=O)CC2(CCN(CCOC(=O)C(O)(c3ccccc3)c3ccccc3)CC2)C1=O`, the inhibition was inactive: -1.4%.
The figure for `CCN(CC)CC(C)C(C)OC(=O)C(O)(c1ccccc1)c1ccccc1` (stereo unspecified) is inactive: -3.6%; for `COc1cc(SC)ccc1C(=O)NCC1(N(C)C)CCCCC1` it is inactive: -1.7%; for `Cc1ccc(C(=O)NCC2(N3CCCCC3)CCCCC2)cc1` it is inactive: -6.5%.

Usually inhibition stands for the relative decrease from the control value, in per cent.

For the origin of these results see PubChem BioAssay AID602261 (Sanford-Burnham Center for Chemical Genomics, 2012).
